Data published in patent publication US20060228754A1 (priority 1998, published 2006).

Assays:
[1] = target: T1, human α-thrombin (Homo sapiens, UniProt P00734); assay: FC-MS screening against immobilized human α-thrombin
[2] = target: T1, human α-thrombin; details: identified in the literature as an inhibitor; cited from earlier work

Compound: NC(N)=NCCC[C@H](NC(=O)[C@@H]1CCCN1C(=O)[C@H](N)Cc1ccccc1)C(=O)O
- maximum intensity relative to the infusion concentration (roll-up effect) ([1]; 1 μM fPR with 1 μM fPR-chloromethyl ketone, FIG. 16B): approximately 3 times
- V−V0 (in words) ([1]; fresh column, void marker compound and peptide alone, 1 μM each): approximately twice the value measured from the mixture
- Kd [2]: 1 µM
